SMILES strings stand for the structures. This is a selection; strong and weak results do not stand in their true shares. Some results for these compounds are left out of this collection, so the calls shown say nothing about other tests. Activity calls are given as the source filed them. No stated cut-off is given here; in the data, active means inhibition above about 30%; inactive means the rest.

This assay concerns Crimean-Congo hemorrhagic fever virus L polyprotein viral ovarian tumor (vOTU) protease domain. The assay can be described thus: CCHFV vOTU protease inhibitors, primary screen, biochemical, Pep-AMC substrate, fluorescence (AID 651958). Further: 0% = vehicle wells with enzyme and 100% = no enzyme wells. The conditions noted are these: at 11.5 µM, stronger effect = higher value.
For the compound `Cc1ccc(C(=O)NCC2(N3CCCCC3)CCCCC2)cc1`, the inhibition was inactive: -17.9%. In the case of `CC(C)N1C(=O)CC2(CCN(CCOC(=O)C(O)(c3ccccc3)c3ccccc3)CC2)C1=O`, the inhibition was inactive: 16.7%. With `COc1cc(SC)ccc1C(=O)NCC1(N(C)C)CCCCC1`, the inhibition is inactive: 6.5%. As for `CCN(CC)CC(C)C(C)OC(=O)C(O)(c1ccccc1)c1ccccc1` (stereo unspecified), the inhibition was inactive: 9.71%. Take `CN1[C@@H]2CC[C@H]1CC(OC(=O)C(O)(c1ccccc1)c1ccccc1)C2` (stereo partly specified): the inhibition is inactive: 5.5%. As for `O=C(NCC1(N2CCCCC2)CCCCC1)c1cc([N+](=O)[O-])ccc1Cl`, the inhibition is inactive: 9.26%. `O=C(NCC1(N2CCCCC2)CCCCC1)c1cccc(Br)c1`: the inhibition is inactive: 5.48%. As to `CCN1CCCC(OC(=O)C2(O)c3ccccc3C=Cc3ccccc32)C1` (stereo unspecified), the inhibition is inactive: 7.77%. On to `Cc1cc(C(=O)NCC2(N3CCCCC3)CCCCC2)ccc1[N+](=O)[O-]`, for which the inhibition was inactive: -14.1%.

Take `COc1ccc(C(=O)NCC2(N(C)C)CCCCC2)cc1`: the inhibition was inactive: -13.4%.

For the compound `O=C(NCC1(N2CCCCC2)CCCCC1)c1cc(F)c(F)cc1Cl`, the inhibition was inactive: 10.8%.

In the case of `C=CCN1CCN(CCOC(=O)C(O)(c2ccccc2)c2ccccc2)CC1`, the inhibition is inactive: -1.75%.

For the compound `CN(C)c1ccc(C(=O)NCC2(N(C)C)CCCCC2)cc1`, the inhibition is inactive: 10.1%.

In the case of `CN(C)C1CCCC1OC(=O)C(O)(c1ccccc1)c1ccccc1` (stereo unspecified), the inhibition was inactive: -0.65%. Turning to `Cc1ccccc1C(=O)NCC1(N2CCCCC2)CCCCC1`, the inhibition was inactive: -4.72%. As for `O=C(NCC1(N2CCCCC2)CCCCC1)c1cccc(Cl)c1`, the inhibition was inactive: -2.37%.

Turning to `COc1ccc(Cl)cc1C(=O)NCC1(N(C)C)CCCCC1`, the inhibition was inactive: -3.83%. For `COc1cccc(C(=O)NCC2(N3CCCCC3)CCCCC2)c1`, the inhibition was inactive: -0.8%. To `COc1cc(C(=O)NCC2(N(C)C)CCCCC2)c([N+](=O)[O-])cc1OC` belongs inactive: 16.7%; to `CN(C)C1(CNC(=O)c2ccc(Br)cc2)CCCCC1`, inactive: -9.4%. On to `CN(C)c1cccc(C(=O)NCC2(N(C)C)CCCCC2)c1`, for which the inhibition was inactive: -1.97%. On to `O=C(OCCN1CCCC1)C(O)(c1ccccc1)c1ccccc1`, for which the inhibition was inactive: 0.28%. On to `CC(C)Oc1ccc(C(=O)NCC2(N(C)C)CCCCC2)cc1`, for which the inhibition was inactive: -3.5%. Take `COc1ccc(Br)c(C(=O)NCC2(N3CCCCC3)CCCCC2)c1`: the inhibition is inactive: 3.9%.

With `C=C(C)C#CC(O)(C(=O)OC1CCN(C)CC1)c1ccccc1` (stereo unspecified), the inhibition is inactive: -9.26%. In the case of `O=C(OC1CN2CCC1CC2)C(CO)(c1ccccc1)c1ccccc1` (stereo unspecified), the inhibition was inactive: 2.28%.

The term inhibition denotes the change of the read-out against control, counted positive when it falls.

(Values after PubChem BioAssay AID651958 (The Scripps Research Institute Molecular Screening Center, 2012).)
